Data as given in ChEMBL document CHEMBL4422679, “Unexpected equivalent potency of a constrained chromene enantiomeric pair rationalized by co-crystal structures in complex with estrogen receptor alpha” (Bioorg Med Chem Lett, 2019).

Chains of the proteins cited; added tags and fusions are not shown.
UniProt P03372, whole entry: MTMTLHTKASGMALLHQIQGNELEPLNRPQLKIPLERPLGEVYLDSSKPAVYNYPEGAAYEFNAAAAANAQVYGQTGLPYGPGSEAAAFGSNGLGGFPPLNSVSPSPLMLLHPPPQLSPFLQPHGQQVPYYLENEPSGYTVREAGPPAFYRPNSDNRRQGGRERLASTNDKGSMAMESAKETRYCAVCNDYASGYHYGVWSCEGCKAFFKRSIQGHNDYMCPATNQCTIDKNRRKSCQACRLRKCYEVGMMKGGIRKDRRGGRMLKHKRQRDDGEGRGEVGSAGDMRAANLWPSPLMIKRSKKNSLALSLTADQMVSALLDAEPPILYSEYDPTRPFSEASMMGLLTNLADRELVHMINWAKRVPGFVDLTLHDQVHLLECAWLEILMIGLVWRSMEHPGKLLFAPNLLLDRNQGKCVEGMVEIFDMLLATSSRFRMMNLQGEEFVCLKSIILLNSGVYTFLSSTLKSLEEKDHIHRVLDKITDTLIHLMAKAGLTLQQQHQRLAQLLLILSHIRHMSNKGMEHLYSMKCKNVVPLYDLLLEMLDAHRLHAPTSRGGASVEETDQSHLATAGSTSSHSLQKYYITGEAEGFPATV

Each compound was assayed against Estrogen receptor (Homo sapiens, UniProt P03372).
Oc1ccc2c(c1)OCCC1=C2C(c2ccc(OCCN3CC(CF)C3)cc2)Oc2ccc(O)cc21 (stereo in doubt; 17b) gave an IC50 of 0.024 nM. Oc1ccc2c(c1)OCCC1=C2C(c2ccc(OCCN3CC(CF)C3)cc2)Oc2ccc(O)cc21 (stereo in doubt; 17a) showed an IC50 of 0.021 nM. Compound Oc1ccc2c(c1)OC(c1ccc(OCCN3CC(CF)C3)cc1)C1=C2CCOc2cc(O)ccc21 (racemic) has an IC50 of 0.045 nM. In the case of Oc1ccc2c(c1)O[C@H](c1ccc(OCCN3CC(CF)C3)cc1)C1=C2CCOc2cc(O)ccc21, the IC50 is reported as 0.059 nM. Work on Oc1ccc2c(c1)O[C@@H](c1ccc(OCCN3CC(CF)C3)cc1)C1=C2CCOc2cc(O)ccc21 yielded an IC50 of 0.055 nM. For Oc1ccc2c(c1)OC(c1ccc(OCCN3CC[C@@H](CF)C3)cc1)C1=C2CCOc2cc(O)ccc21 (some centres not stated), the IC50 was 0.076 nM. C[C@@H](COc1ccc(C2Oc3cc(O)ccc3C3=C2c2ccc(O)cc2OCC3)cc1)N1CC[C@@H](CF)C1 (some centres not stated) gave an IC50 of 0.051 nM.
